From patent US5620676A, “Biologically active ATP analogs” (priority 1995, dated 1997) come the findings set out here.

The chains behind the UniProt entries cited, without tags or fusion partners. Where a name states a change or a piece, a line headed by the entry shows the natural chain unless it says otherwise.
UniProt P49652: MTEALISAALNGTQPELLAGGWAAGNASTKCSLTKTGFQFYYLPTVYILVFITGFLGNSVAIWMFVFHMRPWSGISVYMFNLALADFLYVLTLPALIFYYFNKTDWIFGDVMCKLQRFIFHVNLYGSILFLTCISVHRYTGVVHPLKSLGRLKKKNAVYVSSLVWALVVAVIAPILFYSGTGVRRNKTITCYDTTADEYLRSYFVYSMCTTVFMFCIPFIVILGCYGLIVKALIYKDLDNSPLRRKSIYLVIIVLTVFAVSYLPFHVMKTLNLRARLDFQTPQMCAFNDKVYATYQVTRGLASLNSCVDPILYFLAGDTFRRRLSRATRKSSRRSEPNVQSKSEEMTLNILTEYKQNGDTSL

The assay has as its target T1, P2Y receptor (turkey erythrocyte membranes) (Meleagris gallopavo, UniProt P49652).
T1 construct: from tissue; host or cells: washed turkey erythrocytes, ghosts prepared by hypotonic lysis
Briefly: Stimulation of phospholipase C (inositol phosphate formation) in turkey erythrocyte membranes. Type of assay: biochemical. As to the method: Phospholipase C activity: Stimulation of inositol phosphate formation by compounds of the present invention was measured in turkey erythrocyte membranes as described by Harden et al., supra and Boyer et al., supra. The K0.5 values were averaged from 3-8 independently determined dose-response curves for each compound. Briefly, one ml of washed turkey erythrocytes was incubated in inositol-free medium (DMEM; Gibco) with 0.5-1 mCi of 2-[^3 H]myoinositol (20 Ci/mmol; American Radiolabeled Chemicals Inc., St. Louis, Mo.)for 18-24 h in a humidified atmosphere of 95% air 5% CO2 at 37° C. Erythrocyte ghosts were prepared by rapid lysis in hypotonic buffer (5 mM sodium phosphate, pH 7.4, 5 mM MgCl2, 1 mM EGTA) as described by Boyer et al., supra. Phospholipase C activity was measured in 25 μl of [^3 H]inositol-labeled ghosts (≈175 μg of protein, 200-500,000 cpm/assay) in a medium containing 424 μM CaC12, 0.91 mM MgSO4, 2 mM EGTA, 115 mM KCl, 5 mM KH2 PO4, and 10 mM Hepes, pH 7.0. […] Ghosts were incubated at 30° C. for 5 min, and total [^3 H]inositol phosphates were quantitated after purification by anion exchange chromatography according to Harden et al. (supra) and Boyer et al. (supra). […]
Phospholipase C activity and muscle relaxation/contraction effects were assessed using the methods recited in Example 3. […]

Like-named read-outs stand apart in the source and are kept apart here.

Regarding `CSc1nc(N)c2ncn([C@@H]3O[C@H](COP(=O)(O)OP(=O)(O)O)[C@@H](O)[C@H]3O)c2n1` [2-MeS-ADP, 2-methylthio-ADP, reference compound], the EC50 worked out at 6 ± 3 nM (mean ± S.E.M. for at least 2 determinations, read-out: phosphatidyl inositol metabolism (K0.5, nM) erythrocyte) and 6 nM (read-out: K0.5).
